Experimental data published in patent publication US20070031902A1, “Predictive Methods For Cancer Chemotherapy” (priority 2005, published 2007).

Legend:
HIF-1α [1] = test: IHC and image analysis of HIF-1α in HT1080 cells (DFO, PX-478 dose escalation); type: cell-based, human; details: DFO + 25, 50, 75 μM PX-478
HIF-1α [2] = test: Western blot and densitometry of HIF-1α in HT1080 cells; details: DFO + 25, 50, 75 μM PX-478
pS6 = test: IHC of pS6 in HT1080 cells treated with DFO and HIF-1α inhibitor; details: DFO + increasing HIF-1α inhibitor (FIG. 7B)
pMEK = test: IHC of pMEK in HT1080 cells treated with DFO and HIF-1α inhibitor
pERK = test: IHC of pERK in HT1080 cells treated with DFO and HIF-1α inhibitor
pAKT = test: IHC of pAKT in HT1080 cells treated with DFO and HIF-1α inhibitor; details: DFO + increasing HIF-1α inhibitor (FIG. 7B)
[3] = DFO + increasing HIF-1α inhibitor (FIG. 7B)

N[C@@H](Cc1ccc([N+]([O-])(CCCl)CCCl)cc1)C(=O)O
HIF-1α expression in response to DFO-induced hypoxia (IHC, image analysis) (HIF-1α [1]): concentration-dependent decrease
levels of HIF-1α (Western blot, densitometry) (HIF-1α [2]): decrease in levels of HIF-1α
pS6 expression (IHC) (pS6): not altered
pMEK staining (IHC) (pMEK; DFO + 25, 50, 75 μM PX-478): increased pMEK staining
level of expression inhibition of pMEK in response to hypoxia (pMEK; [3]): reduced
pMEK combined score ((% positive)×(optical density score)) (pMEK; DFO + increasing concentrations of HIF-1α inhibitor (FIG. 7C)): increase
level of expression inhibition of pERK in response to hypoxia (pERK; [3]): reduced
pERK (marker of the EGF pathway) expression (pERK; DFO + increasing concentrations of HIF-1α inhibitor): increased
pAKT expression (IHC) (pAKT): not altered
